In BigSolDB 2.1:

CCCc1nn(C)c2c(=O)[nH]c(-c3cc(S(=O)(=O)N4CCN(C)CC4)ccc3OCC)nc12.O=C(O)CC(O)(CC(=O)O)C(=O)O
solubility (mole fraction)
Conditions	293.2 K	298.2 K	303.2 K	308.2 K	313.2 K
in ethanol	0.000116	0.000119	0.000159	0.000179	0.000251
in water	0.00015	0.00016	0.00027	0.000303	0.000384
